Assay results published in patent US20220243160A1, “Method and Apparatus for Interrogating Biological Systems” (Arizona Board of Regents on Behalf of the University of …, priority 2019, published 2022).

System: SKOV3 ovarian cancer cells
Experiment: MTT antiproliferative assay on SKOV3 cells in monolayer (2D)
Conditions: SKOV3 2D, 0.156 to 80 μM, 48 h

Compound: CC1=C(CO)C(=O)O[C@@H]([C@@H](C)[C@H]2CC[C@H]3[C@@H]4C[C@H]5O[C@]56[C@@H](O)C=CC(=O)[C@]6(C)[C@H]4CC[C@]23C)C1 [WFA, withaferin A]
- cytotoxic effect: dose-dependent cytotoxic effect
